Reference: ChEMBL document CHEMBL1687930 (J Med Chem, 2011)

Assay: Upregulation of P-glycoprotein mRNA expression in human KB-3-1 cells
Type: functional, cell-based

CN1CC[C@H](N(C)C(=O)N2CC(c3cc(F)ccc3F)=C[C@@]2(CO)c2ccccc2)[C@H](F)C1
fold change (FC): > 500
